Assay results as given in patent US7041819B2, “Halogenated calixpyrroles and uses thereof” (Board of Regents, The University of Texas System, priority 1996, dated 2006).

Assays:
[1] = 1H NMR titration in CD2Cl2; format: binding; details: Table 5, 33 from β-CH resonance
[2] = 1H NMR titration in CD2Cl2; details: Table 5
[3] = 1H NMR titration in CD2Cl2; details: for Stability constant, F: Table 5, 33 from β-CH resonance

| Substance | Stability constant, H2PO4 [1] | Stability constant, Cl [2] | Stability constant, F [3] | Stability constant, F (NH) ([3]; Table 5, from NH resonance) |
| --- | --- | --- | --- | --- |
| Mono-β-ferroceneamidocalix[4]pyrrole [Compound 34] | 40 ± 9 M⁻¹ | 444 ± 22 M⁻¹ | 1496 ± 370 M⁻¹ | – |
| Mono-meso-ferroceneamidocalix[4]pyrrole [Compound 33] | 40 ± 6 M^−1 (β-CH) | 202 ± 15 M⁻¹ | 79 ± 7 M^−1 (β-CH) | 206 ± 51 M⁻¹ (NH) |
